Measured values from ChEMBL document CHEMBL1122932, “Metabolism of phencyclidine. The role of the carbinolamine intermediate in the formation of lactam and amino acid metabolites of nitrogen heterocycles” (J Med Chem, 1985).

What was measured:
Assay type in all cases: ADME
Mus musculus [1] = organism: Mus musculus; assay: In vitro level of metabolite in mice liver microsomes at 1 hour
How it was run: (§1)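 12500g liver supernatant from 10 male ICR mice (homogenized in ice-cold pH 7.4 Tris with 0.15 M KCl; stored -70 °C, used within 15 h). Incubated with phencyclidine and NADP/glucose 6-phosphate/nicotinamide/MgSO4 cofactor at 37 °C, 120 osc/min, 100% O2. Metabolites measured by GLC (N-benzylphenylalanine internal standard, nitrogen detector) or HPLC (ketamine internal standard), calibrated by spiking microsomal blanks.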

Mus musculus [2] = organism: Mus musculus; assay: In vitro level of metabolite in mice liver microsomes at 3 hours; how it was run: as §1
Mus musculus [3] = organism: Mus musculus; assay: In vitro level of metabolite in mice liver microsomes at 2 hours; how it was run: as §1

Structure (SMILES)	Metabolite levels (Mus musculus [1])	Metabolite levels (Mus musculus [2])	Metabolite levels (Mus musculus [3])
O[C@H]1CC[C@@](c2ccccc2)(N2CCCCC2)CC1	6.7 µg	8 µg	7.7 µg
O[C@H]1CC[C@](c2ccccc2)(N2CCCCC2)CC1	3.1 µg	5.1 µg	3.6 µg
